1 molecule from patent publication US8741644B2, “Method for producing mast cells from pluripotent stem cells” (Kyoto University, priority 2009, dated 2014) can be followed below.

This assay has as its system hESC-derived hematopoietic progenitor cells. The assay can be described thus: Cell proliferation in step 2 suspension culture with various cytokine combinations. The assay is classed as cell-based, human. Particulars: co-cultured hESC (H1)/AGMS-3 cells in IMDM, 10% FBS, cytokine combinations with or without IL-3, FIG. 9. On the procedure: 5×10^5 cells in the co-culture of hESCs (H1) and AGMS-3 cells (step 1) were replaced in suspension culture consisting IMDM, 10% FBS (F) and various cytokine combinations (step 2). S, 6, 3, V, and P means SCF, IL-6, IL-3, VEGF, and platelet derived growth factor (PDGF), respectively.
To generate mature MCs from hESC-derived hematopoietic progenitor cells, in this step, total co-cultured cells obtained from Step 1 were cultured in non-adhesion 35 mm dishes (Sumilon, surfaces of the plates are resistant to cell adhesion) nurtured by IMDM with 10% FBS and a cocktail of cytokines favoring hematopoietic progenitor cell development (SCF, IL-3, IL-6, FL, TPO). After 7 days of the culture, most of the cells proliferated were hematopoietic cells with a property of myeloid progenitors. The cells expanded to 1.75±0.6×10^6 (n=5) from total co-cultured cells in one 6-well at day 7, which was 29 to 117-fold from initial number of undifferentiated hESCs. The concentration of CD34^÷ cells was 9.1-fold. […] However, after one week in this IL-3-oriented culture, most of the cells shared a phenotype of myeloid progenitors and continuously differentiated to granulocytes and macrophages, but few c-kit^+ mast cells. For this reason, IL-3 was excluded in Step 3.

B1: IL-3: interleukin; hematopoietic factor added to the step 2 culture (protein, UniProt P08700 20-152, looked up)
Interleukin-3: APMTQTTPLKTSWVNCSNMIDEIITHLKQPPLPLLDFNNLNGEDQDILMENNLRRPNLEAFNRAVKSLQNASAIESILKNLLPCLPLATAAPTRHPIHIKDGDWNEFRRKLTFYLKTLENAQAQQTTLSLAIF
Turning to B1, the cell proliferation result is on record as “greatly supported cell proliferation”.
